From patent publication US7741491B2, “Diphenylamine-substituted salicylthiazole derivatives and related compounds as phosphotyrosine phosphatase 1B (PTB1B) inhibitors for using as blood-sugar decreasing active ingredients for treating diabetes” (Sanofi-Aventis Deutschland GmbH, priority 2004, dated 2010)

The chains behind the UniProt entries cited, without tags or fusion partners. Residues count along the entry.
UniProt P18031, 1-299 limits assumed: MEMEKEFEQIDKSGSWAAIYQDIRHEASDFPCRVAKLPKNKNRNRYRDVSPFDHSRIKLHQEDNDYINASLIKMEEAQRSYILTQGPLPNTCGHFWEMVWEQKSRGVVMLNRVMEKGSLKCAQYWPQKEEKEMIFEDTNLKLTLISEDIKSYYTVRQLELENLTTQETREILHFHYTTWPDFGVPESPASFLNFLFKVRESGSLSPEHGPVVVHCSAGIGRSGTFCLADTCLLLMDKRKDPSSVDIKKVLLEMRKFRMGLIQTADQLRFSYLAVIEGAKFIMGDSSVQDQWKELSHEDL

Each compound was assayed against human PTP1B (Homo sapiens, UniProt P18031) (assay: PTP Assay PTP1B DiFMUP (enzymatic test for inhibition of a phosphatase)). Conditions: read-out: IC-50 (μM) PTP Assay PTP1B DiFMUP; recombinant hPTP1B (aa 1-299, expressed in Sf9 cells); substrate DiFMUP per table head.
Assay type: biochemical

Row | SMILES | IC50 [µM]
1 | Cc1sc(Nc2ccc(-c3ccccc3)cc2)nc1-c1ccc(O)c(C(=O)O)c1 | 1.9
2 | CS(=O)(=O)Nc1cccc(-c2ccc(Nc3nc(-c4ccc(O)c(C(=O)O)c4)cs3)cc2)c1 | 5
3 | O=C(O)c1cc(-c2csc(Nc3ccc(-c4ccc5c(c4)OCO5)cc3)n2)ccc1O | 0.7
4 | O=C(O)c1cc(-c2csc(Nc3ccc(-c4ccccc4F)cc3)n2)ccc1O | 1.1
5 | O=C(O)c1cc(-c2csc(Nc3cccc(-c4ccccc4)c3)n2)ccc1O | 3.6
6 | COc1ccc(Nc2nc(-c3ccc(O)c(C(=O)O)c3)cs2)cc1-c1ccccc1 | 2.1
7 | CCNC(=O)c1cccc(-c2ccc(Nc3nc(-c4ccc(O)c(C(=O)O)c4)cs3)cc2)c1 | 2.8
8 | O=C(O)c1ccc(-c2cccc(Nc3nc(-c4ccc(O)c(C(=O)O)c4)cs3)c2)cc1 | 15
9 | O=C(O)c1cc(-c2csc(Nc3ccc(-c4ccccc4)c(C(=O)O)c3)n2)ccc1O | 20.7
10 | CS(=O)(=O)Nc1ccccc1-c1ccc(Nc2nc(-c3ccc(O)c(C(=O)O)c3)cs2)cc1 | 3.8

More lines, in order of falling IC50, values ahead:

Row | IC50 [µM] | SMILES
11 | 3.5 | O=C(Nc1nc(-c2ccc(O)c(C(=O)O)c2)cs1)c1ccc(Oc2ccccc2)cc1
12 | 2.8 | O=C(O)c1cc(-c2csc(Nc3ccc(Cc4ccccc4)cc3)n2)ccc1O
13 | 2.6 | COc1c(Nc2nc(-c3ccc(O)c(C(=O)O)c3)cs2)cccc1-c1ccccc1
14 | 2.5 | CCCNC(=O)c1cccc(-c2ccc(Nc3nc(-c4ccc(O)c(C(=O)O)c4)cs3)cc2)c1
